Test results: patent US7524639B2, “Assay for screening antipsychotic drugs” (priority 2003, dated 2009)

By UniProt entry, the sequences of proteins in these tests, tags left out.
UniProt P14842, whole entry: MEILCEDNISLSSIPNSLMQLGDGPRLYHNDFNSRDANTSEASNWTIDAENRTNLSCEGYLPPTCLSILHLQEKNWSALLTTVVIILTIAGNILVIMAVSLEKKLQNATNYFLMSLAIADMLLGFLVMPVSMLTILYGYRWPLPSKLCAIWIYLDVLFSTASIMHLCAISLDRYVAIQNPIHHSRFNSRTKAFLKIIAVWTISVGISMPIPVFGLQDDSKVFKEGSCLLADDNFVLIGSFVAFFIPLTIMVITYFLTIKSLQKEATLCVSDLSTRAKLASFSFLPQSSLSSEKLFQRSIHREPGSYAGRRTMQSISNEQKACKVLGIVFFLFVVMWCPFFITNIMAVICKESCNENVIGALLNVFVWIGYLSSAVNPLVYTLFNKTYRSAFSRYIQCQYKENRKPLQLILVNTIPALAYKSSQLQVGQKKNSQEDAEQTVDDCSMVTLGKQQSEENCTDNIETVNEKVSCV

Target: T1, rat 5-HT2A receptor tagged with EGFP (Rattus norvegicus, UniProt P14842)
T1 construct: tagged at the C-terminus of the full-length rat 5-HT2A receptor (SR2-GFP); expressed in transfected cells; transiently transfected, differentiated N1E-115 cells (A2)
Assay: Internalization of GFP-tagged 5-HT2A receptor in SB1 cells (HEK293 stable line), confocal fluorescence microscopy
Format: cell-based
Details: drug applied for 10 mins, cycloheximide present

OCCN1CCN(CCCN2c3ccccc3Sc3ccc(C(F)(F)F)cc32)CC1 [Fluphenazine]
Receptor internalization SB1 cells (pattern of internalization): Type C
